Reference: publication PMC7077276 (Viruses, 2020)

Sequences of proteins named here, by UniProt entry; tags and fusion partners are left off. Residues count along the entry.
UniProt O56129, 42-233: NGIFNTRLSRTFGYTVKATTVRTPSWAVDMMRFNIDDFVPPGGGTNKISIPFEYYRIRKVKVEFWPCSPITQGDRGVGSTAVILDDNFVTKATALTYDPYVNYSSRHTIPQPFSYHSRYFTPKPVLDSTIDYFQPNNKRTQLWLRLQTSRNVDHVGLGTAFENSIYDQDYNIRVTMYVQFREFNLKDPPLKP

Key:
[1] = target: T1, PCV2 capsid protein (dcapsid) (Porcine circovirus 2, UniProt O56129); experiment: Microscale thermophoresis assay (MST), wild-type dcapsid; type: binding, porcine circovirus type 2 (PCV2); details: Cy5 labelled, read-out: Kd between dcapsid and compound
T1 construct: hexahistidine (N); made in house; host or cells: Escherichia coli BL21 (DE3)

[2] = target: T2, PCV2 dcapsid bound to Heparin-Sepharose (Porcine circovirus 2, UniProt O56129); experiment: Heparin column chromatography (competitive elution of dcapsid); type: binding, porcine circovirus type 2 (PCV2)
T2 construct: hexahistidine (N); made in house; host or cells: Escherichia coli BL21 (DE3)

heparin
Kd [1]: 121 ± 4.73 µM
dcapsid protein fraction eluted from heparin column ([2]; competitor 0.05 mg/mL): 36.00 ± 6.25%
dcapsid protein fraction eluted from heparin column ([2]; competitor 0.5 mg/mL): 89.33 ± 4.16%
